From US10112926B2 (priority 2014, dated 2018)
Structures can show the parent of a compound that is named as a salt.

Protein sequences, listed by entry. Tags and fused reporters are not part of them. Lines headed by an entry give the natural chain unless they say otherwise; changes in a name come on top.
UniProt P42336, whole entry, looked up: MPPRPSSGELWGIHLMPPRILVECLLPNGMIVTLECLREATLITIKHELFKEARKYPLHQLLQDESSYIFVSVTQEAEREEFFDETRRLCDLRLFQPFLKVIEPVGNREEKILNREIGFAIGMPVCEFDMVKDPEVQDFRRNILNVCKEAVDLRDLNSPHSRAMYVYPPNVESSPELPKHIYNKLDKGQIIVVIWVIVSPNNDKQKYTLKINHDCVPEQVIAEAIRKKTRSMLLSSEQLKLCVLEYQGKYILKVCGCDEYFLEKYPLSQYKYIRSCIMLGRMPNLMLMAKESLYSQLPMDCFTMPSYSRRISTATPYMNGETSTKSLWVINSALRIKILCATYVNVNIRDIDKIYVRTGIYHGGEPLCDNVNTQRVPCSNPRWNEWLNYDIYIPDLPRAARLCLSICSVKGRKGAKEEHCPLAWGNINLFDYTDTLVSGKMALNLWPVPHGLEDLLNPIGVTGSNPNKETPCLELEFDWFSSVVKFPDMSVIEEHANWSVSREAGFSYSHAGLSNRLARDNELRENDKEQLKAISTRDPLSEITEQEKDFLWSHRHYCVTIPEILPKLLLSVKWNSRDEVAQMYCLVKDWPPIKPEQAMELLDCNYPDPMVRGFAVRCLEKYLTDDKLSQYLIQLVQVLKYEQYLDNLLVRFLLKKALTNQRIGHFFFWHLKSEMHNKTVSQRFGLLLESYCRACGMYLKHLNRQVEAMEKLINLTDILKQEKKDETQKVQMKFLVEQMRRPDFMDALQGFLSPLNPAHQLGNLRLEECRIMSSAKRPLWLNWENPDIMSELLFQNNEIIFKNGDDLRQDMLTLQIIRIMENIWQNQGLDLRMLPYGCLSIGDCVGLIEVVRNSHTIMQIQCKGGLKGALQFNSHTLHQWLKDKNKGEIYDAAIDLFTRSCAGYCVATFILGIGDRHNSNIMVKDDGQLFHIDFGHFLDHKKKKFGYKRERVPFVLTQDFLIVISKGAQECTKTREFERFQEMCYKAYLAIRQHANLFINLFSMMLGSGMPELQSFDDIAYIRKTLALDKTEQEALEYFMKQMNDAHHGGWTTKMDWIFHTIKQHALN
UniProt P42338: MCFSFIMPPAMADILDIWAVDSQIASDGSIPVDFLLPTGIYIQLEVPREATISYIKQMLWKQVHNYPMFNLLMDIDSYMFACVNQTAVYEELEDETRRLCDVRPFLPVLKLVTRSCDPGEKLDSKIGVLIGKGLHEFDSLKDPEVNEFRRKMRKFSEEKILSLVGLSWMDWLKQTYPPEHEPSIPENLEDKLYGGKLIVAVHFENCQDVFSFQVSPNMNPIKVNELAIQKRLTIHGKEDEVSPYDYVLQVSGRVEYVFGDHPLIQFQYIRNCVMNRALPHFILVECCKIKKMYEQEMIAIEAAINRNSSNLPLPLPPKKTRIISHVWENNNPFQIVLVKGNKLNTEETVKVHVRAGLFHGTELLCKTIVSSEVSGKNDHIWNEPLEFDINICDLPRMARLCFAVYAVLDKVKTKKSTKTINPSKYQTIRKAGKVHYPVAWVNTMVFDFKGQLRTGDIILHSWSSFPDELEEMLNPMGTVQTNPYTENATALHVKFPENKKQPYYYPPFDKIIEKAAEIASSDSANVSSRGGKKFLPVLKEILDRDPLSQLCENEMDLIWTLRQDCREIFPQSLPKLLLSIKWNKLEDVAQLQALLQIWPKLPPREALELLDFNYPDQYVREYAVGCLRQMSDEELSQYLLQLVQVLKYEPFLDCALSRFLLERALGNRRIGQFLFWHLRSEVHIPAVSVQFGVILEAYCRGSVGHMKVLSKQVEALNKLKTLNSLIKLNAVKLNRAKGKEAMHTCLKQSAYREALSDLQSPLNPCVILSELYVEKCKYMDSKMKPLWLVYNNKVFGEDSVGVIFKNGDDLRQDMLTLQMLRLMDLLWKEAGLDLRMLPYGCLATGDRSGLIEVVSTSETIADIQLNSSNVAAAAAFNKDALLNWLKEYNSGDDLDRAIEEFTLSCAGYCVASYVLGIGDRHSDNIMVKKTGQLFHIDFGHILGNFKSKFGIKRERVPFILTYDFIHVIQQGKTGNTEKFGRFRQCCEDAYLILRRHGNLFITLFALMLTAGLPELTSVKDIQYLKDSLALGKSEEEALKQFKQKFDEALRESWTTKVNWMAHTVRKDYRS

Tests used:
[1] = molecular target: PI 3-kinase alpha (Rat-1 pBABEpuro Myr-HA-hp110 alpha cells) (Homo sapiens (Human), UniProt P42336); assay: cell-based; settings: Assay H PI3Kα IC50
[2] = molecular target: PI 3-kinase beta (Rat-1 pBABEpuro Myr-HA-hp110 beta cells) (Homo sapiens (Human), UniProt P42338); assay: cell-based; settings: Assay I PI3Kβ IC50
PI 3-kinase alpha = PI 3-kinase alpha (Homo sapiens (Human), UniProt P42336); settings: read-out: Assay A PI3Kα IC50
PI 3-kinase beta = PI 3-kinase beta (Homo sapiens (Human), UniProt P42338); settings: read-out: Assay B PI3Kβ IC50

| Compound | IC50 [1] [nM] | IC50 [2] [nM] | IC50 (PI 3-kinase alpha) [nM] | IC50 (PI 3-kinase beta) [nM] |
| --- | --- | --- | --- | --- |
| Cc1cc(-c2cc(-c3cc(S(=O)(=O)NCCC(C)(C)O)ccc3C)cnc2N)ccn1 [Example 16, 3-(2-Amino-2′-methyl-[3,4′]bipyridinyl-5-yl)-N-(3-hydroxy-3-methyl-butyl)-4-methyl-benzenesulfonamide] | 2380 | 8250 | 100 | 6360 |
| Cc1cc(-c2cc(-c3cc(S(=O)(=O)NCC4(C)COC4)ccc3C)cnc2N)on1 [Example 17, 3-[6-Amino-5-(3-methyl-isoxazol-5-yl)-pyridin-3-yl]-4-methyl-N-(3-methyl-oxetan-3-ylmethyl)-benzenesulfonamide hydrochloride] | 3310 | > 10000 | 300 | 1400 |
| Cc1ccc(S(=O)(=O)NCCC(C)(C)O)cc1-c1cnc(N)c(-c2ccncc2)c1 [Example 18, 3-(2-Amino-[3,4′]bipyridinyl-5-yl)-N-(3-hydroxy-3-methyl-butyl)-4-methyl-benzenesulfonamide] | 2030 | > 10000 | 90 | 3840 |
| Cc1noc(-c2cc(-c3cc(S(=O)(=O)N[C@H]4CC[C@H](CO)CC4)ccc3C)cnc2N)n1 [Example 19, trans 3-[6-Amino-5-(3-methyl-[1,2,4]oxadiazol-5-yl)-pyridin-3-yl]-N-(4-hydroxymethyl-cyclohexyl)-4-methyl-benzenesulfonamide hydrochloride] | 220 | 750 | 40 | 100 |
| Cc1cc(-c2cc(-c3cc(S(=O)(=O)NCC4COC4)ccc3C)cnc2N)on1 [Example 25, 3-(6-Amino-5-(3-methylisoxazol-5-yl)pyridin-3-yl)-4-methyl-N-(oxetan-3-ylmethyl)benzenesulfonamide] | 2810 | > 10000 | 400 | 4400 |
| Cc1cc(-c2cc(-c3cc(S(=O)(=O)NC4CC4)ccc3C)cnc2N)on1 [Example 31, 3-(6-Amino-5-(3-methylisoxazol-5-yl)pyridin-3-yl)-N-cyclopropyl-4-methylbenzenesulfonamide] | 1940 | > 10000 | 530 | 3630 |
| Cc1ncc(-c2cc(-c3cc(S(N)(=O)=O)ccc3C)cnc2N)o1 [Example 33, 3-(6-Amino-5-(2-methyloxazol-5-yl)pyridin-3-yl)-4-methylbenzenesulfonamide] | > 10000 | > 10000 | 130 | 3200 |
| Cc1ccc(S(=O)(=O)NOCC(C)(C)O)cc1-c1cnc(N)c(-c2cnn(CC(F)(F)F)c2)c1 [Example 34, 3-(6-Amino-5-(1-(2,2,2-trifluoroethyl)-1H-pyrazol-4-yl)pyridin-3-yl)-N-(2-hydroxy-2-methylpropoxy)-4-methylbenzenesulfonamide hydrochloride] | 540 | 1240 | 70 | 850 |
| Cc1ccc(S(=O)(=O)N[C@H]2CC[C@H](O)CC2)cc1-c1cnc(N)c(-c2cc(C(C)(C)C)no2)c1 [Example 35.2, trans-3-(6-Amino-5-(3-(tert-butyl)isoxazol-5-yl)pyridin-3-yl)-N-(−4-hydroxycyclohexyl)-4-methylbenzenesulfonamide hydrochloride] | > 3000 | 6390 | 270 | 6700 |
| Cc1ccc(S(=O)(=O)NCC(C)(C)O)cc1-c1cnc(N)c(-c2cc(C3CC3)no2)c1 [Example 35.3, 3-(6-Amino-5-(3-cyclopropylisoxazol-5-yl)pyridin-3-yl)-N-(2-hydroxy-2-methylpropyl)-4-methylbenzenesulfonamide hydrochloride] | > 10000 | > 10000 | 390 | 3500 |
| Cc1cc(-c2cc(-c3cc(S(=O)(=O)NCC4(CO)CCOCC4)ccc3C)cnc2N)on1 [Example 37.1, 3-(6-Amino-5-(3-methylisoxazol-5-yl)pyridin-3-yl)-N-((4-(hydroxymethyl)tetrahydro-2H-pyran-4-yl)methyl)-4-methylbenzenesulfonamide] | 5830 | 4220 | 340 | 5500 |
| COC1(C)CN(S(=O)(=O)c2ccc(C)c(-c3cnc(N)c(-c4nc(C)no4)c3)c2)C1 [Example 37.2, 5-(5-((3-Methoxy-3-methylazetidin-1-yl)sulfonyl)-2-methylphenyl)-3-(3-methyl-1,2,4-oxadiazol-5-yl)pyridin-2-amine] | > 10000 | > 10000 | 1400 | > 10000 |
| Cc1cc(-c2cc(-c3cc(S(=O)(=O)NCC4(CO)CCCCC4)ccc3C)cnc2N)on1 [Example 37.3, 3-(6-Amino-5-(3-methylisoxazol-5-yl)pyridin-3-yl)-N-((1-(hydroxymethyl)cyclohexyl)methyl)-4-methylbenzenesulfonamide] | 1710 | > 10000 | 140 | 2100 |
| Cc1cc(-c2cc(-c3cc(S(=O)(=O)N[C@@H]4CCNC(=O)C4)ccc3C)cnc2N)on1 [Example 37.4, (R)-3-(6-Amino-5-(3-methylisoxazol-5-yl)pyridin-3-yl)-4-methyl-N-(2-oxopiperidin-4-yl)benzenesulfonamide] | > 10000 | > 10000 | 570 | 6700 |
| Cc1noc(-c2cc(-c3cc(S(=O)(=O)NC[C@H]4CCCO4)ccc3C)cnc2N)n1 [Example 37.5, (R)-3-(6-Amino-5-(3-methyl-1,2,4-oxadiazol-5-yl)pyridin-3-yl)-4-methyl-N-((tetrahydrofuran-2-yl)methyl)benzenesulfonamide] | 1880 | > 3000 | 160 | 5300 |
| Cc1cc(-c2cc(-c3cc(S(=O)(=O)NCC4(CO)CCC4)ccc3C)cnc2N)on1 [Example 37.6, 3-(6-Amino-5-(3-methylisoxazol-5-yl)pyridin-3-yl)-N-((1-(hydroxymethyl)cyclobutyl)methyl)-4-methylbenzenesulfonamide] | 2860 | > 10000 | 250 | 800 |
| Cc1cc(-c2cc(-c3cc(S(=O)(=O)NC4CCOCC4)ccc3C)cnc2N)on1 [Example 37.8, 3-(6-Amino-5-(3-methylisoxazol-5-yl)pyridin-3-yl)-4-methyl-N-(tetrahydro-2H-pyran-4-yl)benzenesulfonamide] | > 10000 | > 10000 | 300 | 4800 |
| Cc1cc(-c2cc(-c3cc(S(=O)(=O)NCC4(O)CCCCC4)ccc3C)cnc2N)on1 [Example 37.9] | 2350 | 3260 | 150 | 470 |
| Cc1noc(-c2cc(-c3cc(S(=O)(=O)NCC4(CO)CCOCC4)ccc3C)cnc2N)n1 [Example 37.10, 3-(6-Amino-5-(3-methyl-1,2,4-oxadiazol-5-yl)pyridin-3-yl)-N-((4-(hydroxymethyl)tetrahydro-2H-pyran-4-yl)methyl)-4-methylbenzenesulfonamide] | 1410 | > 10000 | 560 | 9100 |
| Cc1noc(-c2cc(-c3cc(S(=O)(=O)NCCC4(O)CCCC4)ccc3C)cnc2N)n1 [Example 37.11, 3-(6-Amino-5-(3-methyl-1,2,4-oxadiazol-5-yl)pyridin-3-yl)-N-(2-(1-hydroxycyclopentyl)ethyl)-4-methylbenzenesulfonamide] | 900 | 2520 | 190 | 1300 |
| Cc1cc(-c2cc(-c3cc(S(=O)(=O)N4CC(CO)C4)ccc3C)cnc2N)on1 [Example 37.12, (1-((3-(6-Amino-5-(3-methylisoxazol-5-yl)pyridin-3-yl)-4-methylphenyl)sulfonyl)azetidin-3-yl)methanol] | 7620 | > 10000 | 810 | 6700 |
| Cc1noc(-c2cc(-c3cc(S(=O)(=O)NCC4(CO)CCCC4)ccc3C)cnc2N)n1 [Example 37.13, 3-(6-Amino-5-(3-methyl-1,2,4-oxadiazol-5-yl)pyridin-3-yl)-N-((1-(hydroxymethyl)cyclopentyl)methyl)-4-methylbenzenesulfonamide] | 2210 | 3860 | 350 | 2800 |
| Cc1noc(-c2cc(-c3cc(S(=O)(=O)NCC4(O)CCC4)ccc3C)cnc2N)n1 [Example 37.15, 3-(6-Amino-5-(3-methyl-1,2,4-oxadiazol-5-yl)pyridin-3-yl)-N-((1-hydroxycyclobutyl)methyl)-4-methylbenzenesulfonamide] | 2070 | 3610 | 290 | 3900 |
| Cc1cc(-c2cc(-c3cc(S(=O)(=O)NCCC4(O)CCCC4)ccc3C)cnc2N)on1 [Example 37.16, 3-(6-Amino-5-(3-methylisoxazol-5-yl)pyridin-3-yl)-N-(2-(1-hydroxycyclopentyl)ethyl)-4-methylbenzenesulfonamide] | 1160 | 6000 | 70 | 1200 |
| Cc1noc(-c2cc(-c3cc(S(=O)(=O)NC4CC(F)(F)C4)ccc3C)cnc2N)n1 [Example 37.17, 3-(6-Amino-5-(3-methyl-1,2,4-oxadiazol-5-yl)pyridin-3-yl)-N-(3,3-difluorocyclobutyl)-4-methylbenzenesulfonamide] | > 10000 | > 10000 | 470 | 2800 |
| Cc1noc(-c2cc(-c3cc(S(=O)(=O)NCC(C)(C)CO)ccc3C)cnc2N)n1 [Example 37.18, 3-(6-Amino-5-(3-methyl-1,2,4-oxadiazol-5-yl)pyridin-3-yl)-N-(3-hydroxy-2,2-dimethylpropyl)-4-methylbenzenesulfonamide hydrochloride] | > 10000 | 3360 | 470 | 220 |
